# Measurements from article PMC10693528, “A high-throughput metabolomics in vitro platform for the characterization of hepatotoxicity” (Cell Biology and Toxicology, 2023).
# Test system: HepG2 cells
# Test: Cytotoxicity (CellTox Green) in parallel with metabolomics experiments
# Details: intermediate concentration (C3; C2 for aroclor), 48 h
compound,measurement,value
CC(=O)N1CCN(c2ccc(OCC3COC(Cn4ccnc4)(c4ccc(Cl)cc4Cl)O3)cc2)CC1 (stereo not shown) [Ketoconazole],cytotoxicity (CellTox Green),low cytotoxicity
